Chains of the proteins cited; added tags and fusions are not shown.
ATP-dependent Clp protease proteolytic subunit (Bacillus subtilis (strain 168)), P80244, UniProt P80244, whole entry, looked up: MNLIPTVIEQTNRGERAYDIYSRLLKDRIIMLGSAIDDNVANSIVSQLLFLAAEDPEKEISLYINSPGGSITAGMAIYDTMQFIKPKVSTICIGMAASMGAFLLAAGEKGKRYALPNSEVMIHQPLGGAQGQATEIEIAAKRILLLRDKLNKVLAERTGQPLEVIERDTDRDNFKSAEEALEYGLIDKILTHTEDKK

# ClpP mod = qHTS Assay for Activators of ClpP. purified B. subtilis ClpP, FRET peptide cleavage, 20 min. 1.9% of 340,000 active. ATP-dependent Clp protease proteolytic subunit (Bacillus subtilis (strain 168)), P80244. AID 651965, 2013. Potency, µM (series often up to 57.5 µM), without a hit: at the highest dose activity change, negative = active; active = well fitted falling curve with a large enough effect; inconclusive = small, poorly fitted or top-dose-only effect; inactive = no such curve, though single readings can be large or run the other way; note: potency is the fitted concentration of half-maximal effect; the source files actives as falling curves though it sought activators and does not explain the sign; nearly all actives have a fitted effect of over 65% in size
#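 Purified B. subtilis ClpP, 10 microg/mL final in Tris/HCl pH8 with KCl, BSA, glycerol and Tween-20, cleaved an Abz/nitrotyrosine-quenched decapeptide. Fluorescence (ex 320, em 430) was read at 0 and 20 min at room temperature. Delta was normalized to 5.8 microM ADEP and DMSO/no-enzyme controls.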
# A549 tox = A549 cytotoxicity, counter-screen for Nrf2 inhibitors; Potency, µM (titrated, usually from 46 µM), without a hit: top-dose activity change, negative = cytotoxicity, usual class: inhibitors; 0.16% of 390,000 active; A549 ARE-Fluc cells, CellTiter-Fluor viability, 18-24 h; note: potency is the fitted concentration of half-maximal effect; % is set by controls: 0 for no effect and ±100 for the full control effect
#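 Cytotoxicity counterscreen: CellTiter-Fluor fluorescence was measured in A549 ARE_Fluc cells after 18-24 h of compound exposure in a concentration series. The subsequent BugLite luminescent read reports ARE-luciferase activity.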
# miR-21 reporter = raises the signal of a miR-21 reporter | Potency, µM (highest dose often 38.3 µM), without a hit: at the top dose reporter change, positive = more light | HeLa miR-21 FLuc reporter, luciferase, 48 h | 340,000 tested, under 10 active; active = well fitted rising curve with a large enough effect; inconclusive = small, poorly fitted or top-dose-only effect; inactive = no such curve, though single readings can be large or run the other way;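 further: % of control where 0% means no effect; miR-21 action dims this reporter so a rising signal means less miR-21 action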
#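 HeLa cells stably expressing CMV-driven firefly luciferase with a downstream miR-21 binding sequence, endogenously expressing miR-21, were treated with titrations (up to about 40uM final) for 48 hours at 37 degree Celsius. Luciferase luminescence was read after lysis.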
# Nrf2 activator = activators of Nrf2 (ARE) signaling; AREc32 ARE-luciferase reporter (MCF7-derived line), luminescence, 24 h; Potency, µM (top dose mostly 46.1 µM), inactives show at the top dose activation, hits mostly activators; 0.31% of 410,000 active; note: potency is the fitted concentration of half-maximal effect; % of control where 0% means no effect; nearly all actives have a fitted effect of over 65% in size
#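 Steps: seed AREc32_Fluc cells (1000/well, 5% FBS OPTI-MEM); incubate overnight at 37 deg C; add 23 nL compound; incubate 24 hr; add Steady-Glo; hold 30 min RT; read luminescence.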
# p53 reactivator = restores transcriptional activity of mutant p53. H1299 p53-A138V BP100-luciferase reporter, luminescence, 24 h. Potency, µM (titrated, usually from 92.2 µM), for inactives: top-dose activity change, positive = activation, most hits filed as activators. 0.063% of 320,000 active; note: potency is the fitted concentration of half-maximal effect; % of control where 0% means no effect; nearly all actives have a fitted effect of over 45% in size
#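 p53-null H1299 cells stably carrying temperature-sensitive p53-A138V and a BP100-luciferase reporter were pinned with compounds (4-point, 1:5 series) and held 24 hrs at 37 deg C. Luminescence was read 10 min after detection reagent.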
# Nrf2 inh = blocks Nrf2 signaling; 2.1% of 360,000 active; Potency, µM (doses to about 46 µM), inactives show top-dose activity change, negative = inhibition, most hits filed as inhibitors; A549 ARE-Fluc reporter, luciferase luminescence, 18-24 h; note: potency is the fitted concentration of half-maximal effect; % is set by controls: 0 for no effect and ±100 for the full control effect; nearly all actives have a fitted effect of over 60% in size
#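 A549 ARE_Fluc cells (5000/well, 5% FBS OPTI-MEM) pre-incubated 2 h, then treated with compounds 18-24 h at 37C/5% CO2 in concentration-response. CellTiter-Fluor viability read first; BugLite luciferase luminescence after 15 min at room temperature gives Nrf2 activity.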
# Active calls of the source: *; ? = inconclusive; / = not tested or not shown. A selection: hits, their analogues and other compounds. The true share with any hit is near 3.7%. Unless noted, calls come from the whole dose curve; as a rule, active = well fitted curve in the direction sought with a large enough effect; inconclusive = small, poorly fitted or top-dose-only effect, or another doubt; inactive = no such curve, though single readings can be large; an effect the other way counts as inactive or inconclusive.
no. | SMILES | ClpP mod | A549 tox | miR-21 reporter | Nrf2 activator | p53 reactivator | Nrf2 inh
1 | COc1ccc(C(CNC(=O)c2cccc(S(=O)(=O)N3CCOCC3)c2)N2CCOCC2)cc1 (stereo not given) | 1% | -1% | / | 0% | 3% | -3%
2 | CC1CN(S(=O)(=O)c2cccc(C(=O)Nc3ccccc3N3CCCC3)c2)CC(C)O1 (stereo not given) | -4% | -12% | / | 4% | 1% | 23µM*
3 | O=C(NCC(O)c1ccccc1)c1cccc(S(=O)(=O)N2CCOCC2)c1 (stereo not given) | 32µM* | 18% | -18% | 0% | 10% | /
4 | COc1ccc(NC(=O)c2cccc(OC(=S)N3CCOCC3)c2)cc1 | -5% | 4% | 10% | 4% | 4% | ?
5 | COc1ccc(C(=O)Nc2ccc(N3CCCCCC3)cc2)cc1S(=O)(=O)N1CCOCC1 | -1% | -17% | / | -1% | 6% | 13µM*
6 | CCCCCCN1C[C@H](n2cc(-c3ccc(F)cc3)nn2)[C@@H](O)C[C@@H]1c1ccc(C)cc1 | -1% | / | / | -6% | / | /
7 | COc1cccc(Nc2nc3ccc(C)cc3nc2-n2nc(C)cc2C)c1 | ? | 0% | -8% | 0% | / | 16%
8 | COc1cc(NC(=O)CN2c3ccccc3S(=O)(=O)c3ccccc32)cc(OC)c1 | -21% | -2% | -5% | 1% | / | ?

# Next section:
no. | SMILES | ClpP mod | A549 tox | miR-21 reporter | Nrf2 activator | p53 reactivator | Nrf2 inh
9 | COc1ccc(-c2ccc3ncnc(NCCc4cnc[nH]4)c3c2)cc1OC | / | ? | / | / | / | -17%
10 | COc1ccccc1-c1nn2c(-c3cc(-c4ccccc4)n[nH]3)nnc2s1 | 2% | 3% | / | / | / | -15%
11 | c1ccc2c(c1)ncn2Cc1nnc2sc(-c3ccc4c(c3)OCO4)nn12 | 28µM* | -7% | -20% | -1% | -13% | -11%
12 | c1ccc2c(c1)OCC(c1nnc3sc(-c4ccc5c(c4)OCO5)nn13)O2 (stereo not given) | 28µM* | 13% | -31% | 3% | ? | ?
13 | Clc1cccc(-c2nnc3sc(-c4ccc5c(c4)OCO5)nn23)c1 | / | / | -3% | / | 2% | /
14 | Clc1ccccc1-c1nn2c(-c3cc(-c4ccccc4)n[nH]3)nnc2s1 | -24% | -15% | / | / | / | 23µM*
15 | Clc1ccccc1-c1nnc2sc(-c3ccc4c(c3)OCO4)nn12 | 32µM* | -18% | -6% | 3% | -2% | /
16 | COc1ccc(-c2cn3c(n2)sc2cc(C(=O)N4CCCCC4)ccc23)cc1 | -22% | 9% | 0% | 3% | / | -13%

# Next structures follow.
no. | SMILES | ClpP mod | A549 tox | miR-21 reporter | Nrf2 activator | p53 reactivator | Nrf2 inh
17 | Cc1cccc(C)c1NC(=O)c1sc(-n2nc(C)c(Cc3ccc4c(c3)OCO4)c2C)nc1C | -1% | 6% | 2% | 0% | / | 15%
18 | Cn1c(NC(=O)/C=C\c2ccccc2)cc(=O)n(C)c1=O | / | 3% | -38% | 11µM* | 29% | ?
19 | Cn1c(NC(=O)c2ccc(Br)o2)cc(=O)n(C)c1=O | -3% | 2% | 2% | 11µM* | -10% | /
20 | O=C(O)c1cc2ccccc2c(N=Nc2cccnc2)c1O | / | ? | 0% | 22% | -6% | 18µM*
21 | COC(=O)c1ccc(-c2ccco2)n1Cc1ccccc1Cl | 28µM* | 1% | -5% | 3% | -1% | -9%
22 | O=C(c1ccccc1)c1nc[nH]c1C(=O)Nc1ccccn1 | 28µM* | 3% | -8% | 4% | 3% | 23%
23 | Cc1cc(C)n(C(=O)CNC(=O)C2COc3ccccc3O2)n1 (stereo not given) | 2% | 0% | -7% | 1% | 7% | -14%
24 | Cc1cc(C)n(C(=O)c2ccc(NC(=O)C3COc4ccccc4O3)cc2)n1 (stereo not given) | 35µM* | 17% | -18% | 0% | / | /
25 | COC(=O)CC1(C(=O)OC)Oc2ccc(Br)cc2C(=O)N1c1cc(Cl)c(Cl)cc1Cl (stereo not given) | 1% | 1% | 20% | 6% | 0% | ?

# Compound profiles, from the list above. Values in the order: ClpP mod	A549 tox	miR-21 reporter	Nrf2 activator	p53 reactivator	Nrf2 inh
# `Cc1cc(C)n(C(=O)c2ccc(NC(=O)C3COc4ccccc4O3)cc2)n1` (stereo not given) is entered as 35µM*	17%	-18%	0%	/	/
# `COC(=O)c1ccc(-c2ccco2)n1Cc1ccccc1Cl` is entered as 28µM*	1%	-5%	3%	-1%	-9%
# `O=C(c1ccccc1)c1nc[nH]c1C(=O)Nc1ccccn1` is entered as 28µM*	3%	-8%	4%	3%	23%
# `Cn1c(NC(=O)/C=C\c2ccccc2)cc(=O)n(C)c1=O` is entered as /	3%	-38%	11µM*	29%	?
